We go through one substance from publication PMC6073756, “Allicin Bioavailability and Bioequivalence from Garlic Supplements and Garlic Foods” (Nutrients, 2018).

On the set-up of data set [1]: method as in PMID 25681129. Particulars: cited from earlier work.
The nature of data set [2]: Allicin bioavailability or bioequivalence bioassay: 32-h breath allyl methyl sulfide (AMS) concentration curve after consumption. The data set is classed as in vivo, human.

Marks after values point to notes of the source that are not given here.

With “S(+)-allyl-L-cysteine sulfoxide [Alliin, L(+)]”, in data set [1], the “Administered alliin found in blood or urine as SAC or N-acetyl-SAC” value is recorded as “less than 0.1%”, the “Dose found as unidentified compounds” value was 72%, the “Dose found in the urine as N-acetyl-alliin” value is reported as 22% and the “Dose found in the urine as alliin” value is given as 6%. Further, the “Time at which breath AMS returned to (near) baseline, zero or undetectable” value in data set [2] (in vivo) was “about 27 h”. For the same substance, in data set [2] (inferred from pure alliin), the “Alliin transformed to allicin by bacterial alliinase activity” value is 0–4%. Also, the “Time at which breath AMS was first detectable (Tmin)” value in data set [2] (low-protein meal) is 0.2 h. In addition, in data set [2] (low-protein meal, one person (n = 1)), the “Allicin Bioequivalence (TKSA, RRF2)” value was 4.6 ± 0.7 ^c %. Further, the Tmax – broadly, the time from dosing to the highest level – in data set [2] (low-protein meal, one person (n = 1), repeated tests, listed as L(+)-alliin) was 3 to 3.5 h.
